Measured values: patent publication US9045474B2, “Compounds and compositions for mitigating tissue damage and lethality” (The Regents of the University of California, priority 2010, dated 2015)

System: C3H mice
Assay: Mitigation of radiation-induced lethality in C3H mice (8Gy, LD100/30)
Settings: 75 mg/kg s.c. after 8Gy

COc1ccc2cc(-c3nc4ccc(C)cn4c3NCc3ccco3)c(=O)[nH]c2c1 [Yel002]
signs of toxicity or adverse effects: Without any signs of toxicity or advert effects
